Molecular target: Histone deacetylase 1 (Homo sapiens, UniProt Q13547)
Test: biochemical
Format: cell-based

Sequences of proteins named here, by UniProt entry; tags and fusion partners are left off.
UniProt Q13547, whole entry: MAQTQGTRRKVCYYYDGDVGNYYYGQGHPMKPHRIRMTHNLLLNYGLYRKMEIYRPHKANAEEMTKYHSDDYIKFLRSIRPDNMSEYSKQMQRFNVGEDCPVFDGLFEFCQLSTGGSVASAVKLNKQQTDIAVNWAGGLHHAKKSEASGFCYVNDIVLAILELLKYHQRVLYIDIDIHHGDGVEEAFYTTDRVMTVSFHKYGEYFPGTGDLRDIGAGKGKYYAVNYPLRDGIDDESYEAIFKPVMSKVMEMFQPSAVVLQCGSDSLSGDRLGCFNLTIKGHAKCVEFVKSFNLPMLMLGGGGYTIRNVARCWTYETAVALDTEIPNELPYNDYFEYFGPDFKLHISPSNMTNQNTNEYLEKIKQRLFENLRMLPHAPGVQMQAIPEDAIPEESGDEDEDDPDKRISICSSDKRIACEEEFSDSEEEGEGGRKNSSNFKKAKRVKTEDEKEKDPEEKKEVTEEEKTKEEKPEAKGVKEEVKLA

C[C@H](NC(=O)c1nc(-c2ncc(-c3ccccc3)s2)sc1C1CC1)c1ccc(C(=O)NO)cc1
IC50: 3.59 to 4 nM

— ChEMBL document CHEMBL4354838, “Synthesis and in Vitro and in Vivo Biological Evaluation of Tissue-Specific Bisthiazole Histone Deacetylase (HDAC) Inhibitors” (J Med Chem, 2020)
